Data on one molecule can be found in ChEMBL document CHEMBL1126275, “Conformationally restrained, chiral (phenylisopropyl)amino-substituted pyrazolo[3,4-d]pyrimidines and purines with selectivity for adenosine A1 and A2 receptors” (J Med Chem, 1992).

Sequences of proteins named here, by UniProt entry; tags and fusion partners are left off.
UniProt P25099, whole entry: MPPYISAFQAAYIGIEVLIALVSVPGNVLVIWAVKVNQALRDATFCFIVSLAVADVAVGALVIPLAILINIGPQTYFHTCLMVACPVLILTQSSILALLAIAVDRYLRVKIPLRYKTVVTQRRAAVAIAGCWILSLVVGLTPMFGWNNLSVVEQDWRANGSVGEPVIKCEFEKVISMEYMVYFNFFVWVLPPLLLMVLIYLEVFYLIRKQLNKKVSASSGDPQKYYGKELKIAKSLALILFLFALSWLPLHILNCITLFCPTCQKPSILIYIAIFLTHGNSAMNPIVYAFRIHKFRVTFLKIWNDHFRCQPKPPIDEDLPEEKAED

The structures appear in SMILES notation.

For this experiment, the target named is Adenosine receptor A1 (Rattus norvegicus, UniProt P25099). As to the kind of experiment: Inhibition of [3H]CHA binding to Adenosine A1 receptor in rat cerebral cortical membranes. The experiment is classed as cell membranes, Membrane. In outline:
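Rat cerebral cortical membranes; displacement of [³H]CHA binding. Test compounds held as millimolar DMSO stocks, warmed to room temperature and diluted in water. Values from a single competition experiment, each concentration in triplicate.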

On to `CCCOc1nc2c(cnn2-c2ccccc2)c(=O)n1C`, for which the IC50 (in general, the concentration at which inhibition is half-maximal) was determined as 4.3 µM.
